From article PMC4885109, “Rapid Discovery and Structure–Activity Relationships of Pyrazolopyrimidines That Potently Suppress Breast Cancer Cell Growth via SRC Kinase Inhibition with Exceptional Selectivity over ABL Kinase” (Journal of Medicinal Chemistry, 2016)
Where two headings read alike, the source gives them in different places.

Columns and labels:
[1] = system: Tg(brn3c:mGFP) zebrafish embryos; format: in vivo; settings: treatment for 2 d in the neuromast assay
[2] = rat plasma, 1 μM, 2 h, 37 °C
[3] = Stability in primary hepatocytes, mouse
in vitro [4] = settings: rat, plasma
MCF7 cells = assay: Dose-response viability assay (PrestoBlue), MCF7; format: cell-based; settings: Homo sapiens, MCF7, 120 h, read-out: EC50 (MCF7), 5 d, PrestoBlue cell viability
[5] = biological target: SRC; recombinant human full length (Homo sapiens, UniProt P12931); settings: Michaelis-Menten and Lineweaver-Burk plots
[6] = mouse plasma, 1 μM, 2 h, 37 °C
[7] = system: phospho-FAK^Y861 in SYF cells
[8] = human plasma, 1 μM, 2 h, 37 °C
[9] = system: phospho-SRC^Y416 and phospho-FAK in MCF7 cells; settings: Western blot
[10] = system: phospho-SRC^Y416 and phospho-FAK in MDA-MB-231 cells; settings: Western blot
in vitro [11] = settings: human, plasma
MDA-MB-231 cells = settings: 10 nM, from 6 h
[12] = system: SYF murine embryonic fibroblasts (SRC-/-, YES-/-, FYN-/-); assay: Dose-response proliferation study in SYF cells; settings: compared with dasatinib

COc1cc(-c2nn(CCN3CCC(N(C)C)CC3)c3ncnc(N)c23)ccc1NC(=O)OC(C)(C)C [11a, tert-Butyl N-[4-[4-amino-1-[2-[4-(dimethylamino)-1-piperidyl]ethyl]pyrazolo[3,4-d]pyrimidin-3-yl]-2-methoxy-phenyl]carbamate]
effect on development of the embryos [1]: minimal effect on the development of the embryos
plasma stability (recovery) [2]: full plasma stability
decrease in half-life in mice hepatocytes versus human hepatocytes [3]: 7 fold
fraction unbound at 24 h, 10 µM (in vitro [4]): 0.094
zebrafish heart development under short treatment (zebrafish embryos; 500 µM added 2 dpf, 4 h, then 48 h in fresh media): normal heart development and no toxicity
EC50 (MCF7 cells): 31 nM
mode of SRC inhibition [5]: competitive with respect to ATP
plasma stability (recovery) [6]: full plasma stability
FAK activity (phospho-FAK) in cells lacking SRC ([7]; SYF cells, 3-100 nM): unaffected
plasma stability (recovery) [8]: full plasma stability
inhibition of SRC autophosphorylation observed down to [9]: 10 nM
total SRC level [10]: did not increase the total levels of SRC
fraction unbound at 24 h, 10 µM (in vitro [11]): 0.191
cell motility (scratch-wound) (MDA-MB-231 cells): significantly reduced cell motility
antiproliferative activity in SYF cells [12]: significantly less antiproliferative activity in SYF cells than dasatinib

COc1cc(-c2nn(CCN3CCC(N4CCCC4)CC3)c3ncnc(N)c23)ccc1NC(=O)OC(C)(C)C [12d]
EC50 (MCF7 cells): 77 nM

COc1cc(-c2nn(CCN3CCC(N4CCCCC4)CC3)c3ncnc(N)c23)ccc1NC(=O)OC(C)(C)C [12e]
EC50 (MCF7 cells): 209 nM

COc1cc(-c2nn(CCN3CCC(N(C)C)CC3)c3ncnc(N)c23)ccc1NC(=O)NC(C)(C)C [12i]
EC50 (MCF7 cells): 35500 nM

COc1cc(-c2nn(CCN3CCC(N(C)C)CC3)c3ncnc(N)c23)ccc1NCc1ccccc1 [12m, 3-[4-(benzylamino)-3-methoxy-phenyl]-1-[2-[4-(dimethylamino)-1-piperidyl]ethyl]pyrazolo[3,4-d]pyrimidin-4-amine]
EC50 (MCF7 cells): 580 nM

CN(C)C1CCN(CCn2nc(-c3ccc(CC(=O)OC(C)(C)C)cc3)c3c(N)ncnc32)CC1 [12w]
EC50 (MCF7 cells): 2580 nM

COc1cc(-c2nn(CCN3CCC(N(C)C)CC3)c3ncnc(N)c23)ccc1CC(=O)OC(C)(C)C [12x]
EC50 (MCF7 cells): 415 nM

COc1cc(-c2nn(C(C)C)c3ncnc(N)c23)ccc1NC(=O)OC(C)(C)C [PP20]
zebrafish heart development under short treatment (zebrafish embryos; zebrafish, in vivo): severe cardiotoxicity

Cc1nc(Nc2ncc(C(=O)Nc3c(C)cccc3Cl)s2)cc(N2CCN(CCO)CC2)n1.O [dasatinib]
cardiotoxic phenotype in zebrafish embryos (zebrafish embryos; 1–10 μM): patent cardiotoxic phenotype
toxicity in zebrafish embryos (zebrafish embryos; zebrafish, in vivo): severe cardiotoxicity and death of most embryos
FAK activity (phospho-FAK) in cells lacking SRC [7]: unaffected
